# Source: PubChem BioAssay AID492972 (The Scripps Research Institute Molecular Screening Center, 2010)
# The chains behind the UniProt entries cited, without tags or fusion partners.
# UniProt Q15102, whole entry: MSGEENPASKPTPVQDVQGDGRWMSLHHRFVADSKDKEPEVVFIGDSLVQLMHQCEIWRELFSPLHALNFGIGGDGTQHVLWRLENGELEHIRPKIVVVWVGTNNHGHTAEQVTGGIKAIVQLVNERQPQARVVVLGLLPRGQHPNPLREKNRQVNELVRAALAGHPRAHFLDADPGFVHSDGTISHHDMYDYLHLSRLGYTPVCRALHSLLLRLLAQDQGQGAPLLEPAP
# The list shows a part of the results, in another mix than the full data. Activity calls are given as the source filed them.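 Rule for the calls: active = inhibition above the screen-wide average of all tested compounds plus 3 SD (cut at about 25% in these data); inactive = the rest.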
# Biological target: Platelet-activating factor acetylhydrolase IB subunit alpha1 (Homo sapiens) (UniProt Q15102)
# Experiment: inhibition of PAF acetylhydrolase 1B subunit 3 – biochemical, fluorescence polarization, human, primary screen (AID 492972);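 note: 0% = enzyme with DMSO only and 100% = wells lacking PAFAH1B3 protein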
# Settings: recombinant PAFAH1B3, FP-rhodamine probe, at 3.39 µM, hits give high values
row,Structure (SMILES),inhibition
1,O=C1CCN(Cc2ccccc2)CC1,inactive: 0.84%
2,CCOc1ccc(C)cc1CN(CCCl)CCCl,inactive: 14%
3,O=C(NCC1(N2CCCCC2)CCCCC1)c1ccc(F)cc1,inactive: 0.6%
4,CCCCOc1ccc(C(=O)NCC2(N3CCOCC3)CCCCC2)cc1,inactive: -0.03%
5,O=P1(N(CCCl)CCCl)SCCCS1,inactive: 4.6%
6,CCOC(=O)N1CCC(Nc2ccc(F)cc2)CC1,inactive: -0.13%
7,COc1ccc(NC2CCN(CCc3ccccc3)CC2)c(OC)c1,inactive: 2.97%
8,COc1cc(C(=O)NCC2(N(C)C)CCCCC2)ccc1OC(F)F,inactive: 2.52%
9,CCOC(=O)N1CCC(Nc2cccc(C)c2)CC1,inactive: 6.03%
10,COc1ccc(C(=O)NCC2(N3CCCCC3)CCCCC2)cc1,inactive: -1.57%
11,CC(C)(C)OC(=O)N1CCC(N(C(=O)c2ccccc2)c2ccc(F)cc2)CC1,inactive: 9.19%
12,COc1ccc(C(=O)NCC2(N3CCCCC3)CCCCC2)c(OC)c1OC,inactive: 0.51%
13,O=C(NCC1(N2CCCCC2)CCCCC1)c1ccc(=O)[nH]c1,inactive: 4.22%
14,O=C(NCC1(N2CCCCC2)CCCCC1)c1cccs1,inactive: -6.02%
15,CSc1ccccc1C(=O)NCC1(N2CCCCC2)CCCCC1,inactive: -5.73%
16,Cc1cccc(NC2(C#N)CCN(Cc3ccccc3)CC2)c1,inactive: 9.43%
17,O=C(NCC1(N2CCCCC2)CCCCC1)c1ccc(Cl)nc1,inactive: -4.39%
18,Cc1cc(C)cc(N(C(=O)c2ccccc2)C2CCN(C(=O)OC(C)(C)C)CC2)c1,inactive: -2.15%
19,O=C(NCC1(N2CCOCC2)CCCCC1)c1cc2ccccc2o1,inactive: 8.84%
20,O=C(OC1CN2CCC1CC2)C1c2ccccc2Oc2ccccc21 (centres undefined),inactive: -1.51%
21,N#CC1(Nc2ccccc2)CCN(Cc2ccccc2)CC1,inactive: 4.95%
22,O=C(NCC1(N2CCCCC2)CCCCC1)c1ccc(Cl)s1,inactive: -2.05%
23,COc1ccc(Cl)cc1C(=O)NCC1(N2CCOCC2)CCCCC1,inactive: 7.14%
24,CCOC(=O)N1CCC(Nc2ccc(OC)cc2)CC1,inactive: 9.59%
25,CC(C)c1ccc(NC2CCN(C(=O)OC(C)(C)C)CC2)cc1,inactive: 1.32%

row,Structure (SMILES),inhibition
1,COc1ccc(CN(CCCl)CCCl)cc1Cl,inactive: 3.24%
2,CN(C)c1cccc(C(=O)NCC2(N3CCCCC3)CCCCC2)c1,inactive: -1.71%
3,COc1cc(OC)c(C(=O)NCC2(N(C)C)CCCCC2)cc1OC,inactive: 6.92%
4,O=C(NCC1(N2CCOCC2)CCCCC1)c1cc(F)c(F)cc1Cl,inactive: 3.38%
5,O=C(NCC1(N2CCCCC2)CCCCC1)c1cncc(Br)c1,inactive: -4.25%
6,CN1CCC(Nc2cccc(F)c2)CC1,inactive: 10.3%
7,CCCOc1ccc(C(=O)NCC2(N(C)C)CCCCC2)cc1OC,inactive: 5.19%
8,O=C(NCC1(N2CCCCC2)CCCCC1)c1ccc(OC(F)F)cc1,inactive: -1.14%
9,CCN1CCC(Nc2ccc(Cl)cc2)CC1,inactive: 4.44%
10,N#CC1(Nc2ccccc2)CCN(CCc2ccccc2)CC1,inactive: 2.5%
11,CSc1ccc(C(=O)NCC2(N3CCOCC3)CCCCC2)cc1,inactive: -0.78%
12,O=C(NCC1(N2CCCCC2)CCCCC1)c1cccc([N+](=O)[O-])c1,inactive: 2.72%
13,O=C(NCC1(N2CCCCC2)CCCCC1)c1cccc(C(F)(F)F)c1,inactive: -2.24%
14,O=C(NCC1(N2CCOCC2)CCCCC1)c1cc(=O)[nH]c2ccccc12,inactive: 8.97%
15,COc1cc(C(=O)NCC2(N3CCCCC3)CCCCC2)ccc1OC(F)F,inactive: -18.6%
16,CC(C)c1ccc(C(=O)NCC2(N3CCOCC3)CCCCC2)cc1,inactive: -0.19%
17,COc1ccc(NC2CCN(C(=O)OC(C)(C)C)CC2)cc1,inactive: 6.88%
18,CN1CCN(CCOC(=O)C(O)(c2ccccc2)c2ccccc2)CC1,inactive: -1.48%
19,N#Cc1ccc(C(=O)NCC2(N3CCCCC3)CCCCC2)cc1,inactive: 0.6%
20,CC(C)(C)OC(=O)N1CCC(N(C(=O)c2ccccc2)c2ccc(Cl)cc2)CC1,inactive: 7.38%
21,CN(C)C1(CNC(=O)c2cccc(C#N)c2)CCCCC1,inactive: 0.81%
22,c1ccc(CN2CCC(Nc3ccccc3)CC2)cc1,inactive: 5.99%
23,Cc1cc(N(CCCl)CCCl)ccc1C=O,inactive: -6.47%
24,CCCN1CCC(Nc2cc(OC)cc(OC)c2)CC1,inactive: 6.23%
25,COc1cc(C(=O)NCC2(N3CCOCC3)CCCCC2)cc(OC)c1C,inactive: 7.27%

row,Structure (SMILES),inhibition
1,O=C(NCC1(N2CCOCC2)CCCCC1)c1cc(Br)ccc1Cl,inactive: 3.54%
2,COc1ccc(C(=O)NCC2(N3CCOCC3)CCCCC2)cc1OC,inactive: -3.32%
3,CCOC(=O)N1CCC(Nc2ccc(C)cc2)CC1,inactive: 1.82%
4,N/C(=N\O)c1c(N)no[n+]1[O-],inactive: -5.53%
5,O=C(OC1CN2CCC1CC2)C1c2ccccc2C=Cc2ccccc21 (centres undefined),inactive: 9.92%
6,CCOc1ncccc1C(=O)NCC1(N2CCOCC2)CCCCC1,inactive: 8.22%
7,CN1CCC(Nc2ccc(F)c(Cl)c2)CC1,inactive: 4.89%
8,CC(C)(C)OC(=O)N1CCC(Nc2ccccc2)CC1,inactive: -3.22%
9,O=C(O)C1(Nc2ccccc2)CCN(Cc2ccccc2)CC1,inactive: 3.53%
10,CCCOc1ccc(C(=O)NCC2(N(C)C)CCCCC2)cc1,inactive: 3.79%
11,COc1cccc(C(=O)N(c2cc(C)cc(C)c2)C2CCN(C(=O)OC(C)(C)C)CC2)c1,inactive: 7.97%
12,COc1cc(OC)cc(C(=O)NCC2(N3CCOCC3)CCCCC2)c1,inactive: 6.4%
13,CCC(CO)(C(=O)OC1CN2CCC1CC2)c1ccccc1 (centres undefined),inactive: 3.05%
14,CN1CCC(Nc2ccc(Cl)cc2)CC1,inactive: -0.36%
15,CC(=O)N(c1ccccc1)C1CCNCC1,inactive: 2.52%
16,COc1cc(OC)cc(C(=O)NCC2(N3CCCCC3)CCCCC2)c1,inactive: 2.49%
17,Cc1ccc(C(=O)NCC2(N3CCCCC3)CCCCC2)o1,inactive: 1.64%
18,Fc1ccccc1NC1CCN(Cc2ccccc2)CC1,inactive: 5.27%
19,Cc1ccc(NC2(C#N)CCN(Cc3ccccc3)CC2)cc1,inactive: 5.95%
20,Cc1ccccc1NC1(C#N)CCN(Cc2ccccc2)CC1,inactive: 6.04%
21,CCN1CCC(Nc2cccc(F)c2)CC1,inactive: 5.32%
22,O=C(NCC1(N2CCCCC2)CCCCC1)c1ccco1,inactive: -3.67%
23,Cn1c(=O)[nH]cc(N(CCCl)CCCl)c1=O,inactive: 4.29%
24,CN(C)c1ccc(C(=O)NCC2(N3CCCCC3)CCCCC2)cc1,inactive: -1.83%
